# Ab-14 light chain CDR variants: yeast mating affinities

Antigen: PDVDLGDISGINAS, a 14-residue peptide of the SARS-CoV-2 spike HR2 region.

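Phage display of a naive human antibody library on the peptide gave the parent. Designed CDR sequences, proposed from the first random library and measured here. Group labels follow the data file (Ctrl: baseline library sampled from a position-specific scoring matrix, with some repeated check sequences; Rand: our label for a block that the file lists under HC and that is probably the random mutants of the ten best first-round binders; En: ensemble of fine-tuned language models; GP: Gaussian process model; HC: hill climbing; Gen: genetic algorithm; Gibbs: Gibbs sampling; a sequence that several methods proposed may carry one label only). The scFvs were displayed on barcoded MATa yeast, the peptide on MATalpha yeast. Pairs that bind mate more often; barcode pairs of the diploids are counted by sequencing. Read counts were normalised to the haploid input and turned into Kd by a linear fit to BCL2-family pairs of known affinity, for each replicate. The assay was run in six technical replicates.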

Ab-14 is the parent antibody, in scFv form: VH, then a 15-residue (Gly4Ser)3 linker, then VL. The heavy chain is unchanged in all variants.
VH: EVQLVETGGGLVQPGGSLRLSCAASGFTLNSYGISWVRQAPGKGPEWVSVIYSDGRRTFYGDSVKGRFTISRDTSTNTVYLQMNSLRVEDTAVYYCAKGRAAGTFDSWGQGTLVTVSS
VL: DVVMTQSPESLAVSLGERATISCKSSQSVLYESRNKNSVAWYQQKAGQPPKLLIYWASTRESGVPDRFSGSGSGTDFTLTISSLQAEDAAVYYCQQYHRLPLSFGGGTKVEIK

Variants are written as CDR1, CDR2 and CDR3 of the light chain (limits as in the source). Parent: KSSQSVLYESRNKNSVA, WASTRES, QQYHRLPLS.
The read-out is the apparent dissociation constant on a log10 scale (nM): the lower, the stronger.
Replicates are averaged; those with no signal do not enter the mean.
A pair that was not seen in any replicate is written "not detected"; this usually means weak binding, but a binder can also be missed.
Values of this round are not directly comparable with the first-round values of the same sequences.
Nonspecific signal, from three strains lacking the peptide, appeared in 4% of pairings of all light chain designs, centred on 2.64 (5% of these signals below 1.59); values are not corrected for it.
The authors averaged sequences with at least three values out of six and counted those with two or fewer as poor binders.
Of ten entries with the parent sequence, four were seen in most replicates (averages 0.34 to 2.37), three in one and three in none, so single entries are noisy.

"log10 Kd (nM), mean",detected,CDR-L1,CDR-L2,CDR-L3,group
0.04,6/6,KSSPSVLYESLNKNSVA,NASTRMS,QQYHRLPLS,GP_HC
2.57,3/6,MISQLWNMGQFAINSVA,QASLRCN,QQYDRLPLE,En_Gen
1.12,6/6,KISYMGEHFSTNHSAIA,QASQREQ,QQYHRLPIS,En_HC
not detected,0/6,KSSQSVLYESRMKWSVA,QASTRES,QQYHRLPLS,Ctrl
-0.16,6/6,KVSQSVDGQDRNKNAVA,AASTRES,QQYHRLPLS,GP_Gibbs
-0.33,6/6,KLSQSVLYESRNKNSVA,NASTRES,QQYHRLPLY,GP_Gen
1.58,6/6,KLSISYLFESQNKASIA,ENSTRES,QHYHRLPLS,En_HC
1.50,6/6,RIQMGDFEGRTAWNSIA,DGEEIYR,QQYVRLPLY,En_Gibbs
0.88,6/6,ALELFEYQMMKDINSIA,NTEYKTN,QQYVRLPFS,En_Gibbs
0.07,6/6,KFMQMVWQESRNKNSVA,NASTRMQ,QQYHRLPLS,GP_Gibbs
-0.47,6/6,KLSQSWLYESRNKNSVA,NASTREQ,QQYHRLPLS,GP_Gen
0.13,6/6,IAAQSWLYESRNKNSVA,GASTRES,QQYHRLPLI,GP_HC
0.85,6/6,TISQMTSLFSQSINNVA,EVSTREP,QQYDRLPLT,En_Gen
0.65,6/6,FSLQSVLYESRNFNSVA,NASTRED,QQYHRLPLS,GP_HC
-0.05,6/6,KLSFSNLYEDRNKNSVA,QASTRLM,QQYHRLPLS,GP_Gibbs
-0.14,6/6,KLSQSEEYESRNKNSVA,NASQRES,QQYHRLPLS,GP_Gen
0.23,6/6,KLGQGVLYESRNWNSVA,GASTRES,QQYHRLPLS,GP_HC
2.33,3/6,FIQGNYNDKYQVSNSIA,DEAHLMA,QQYDLLPLS,En_Gibbs
0.67,6/6,HSSPSVSYESRNKNSVA,NASYRES,QQYHRLPLS,GP_HC
0.33,6/6,HMSMLTMMGSRQRNSVA,QMTTREN,QQYDRLPLM,En_Gen
1.19,6/6,KIAQSMNMTSHHINSVA,QSTTREE,QQYNHLPLS,En_HC
1.19,6/6,KVPGSHDYESRNKNSVA,HASTRCS,QDYHRLPLS,GP_Gibbs
2.76,2/6,KSSQSVLYESRNKNSVA,WASTRES,QYYHRLPLS,Ctrl
1.56,6/6,IISGSMLVESKHKNSVA,NAETREY,QHYDRLPLS,En_HC
0.17,6/6,KLSQSGLYESRNKNSVA,NASTREM,QQYHRLPLS,GP_Gen
-0.06,6/6,KFSQSQLYESRNKNSVA,DASTRES,QQYHRLPLS,GP_Gen
1.59,6/6,KISFLQNQTFEESNNVA,EMVTREK,QQYNRLPLS,En_Gen
not detected,0/6,KVSPSVLGEMRNKNSVA,NASTRRS,QQYHRLPLS,GP_Gibbs
0.86,6/6,KISQSVLYESREKNSVA,WASTRES,QQYHRLPLS,Ctrl
0.45,6/6,KSSISYLYESMNKNSVA,AGSTRES,QQYHRLPLS,GP_HC
1.68,3/6,SFDLHHKQIETIESAVA,ETSVRAD,QSYDRLPLS,En_Gibbs
1.86,5/6,KISQMARVGSTHSNSIA,EEAKRAD,QQYHRLPLA,En_Gen
0.61,6/6,KLYQSVLYESRMKNSVA,NASQRES,QQYHRLPLS,GP_Gen
0.41,6/6,MFSQLVMTGSRTKNAVA,QASTREN,QQYHRLPIS,En_HC
0.95,6/6,KISMYLNKESKAGNNVA,EMVTRES,QQYDRLPLS,En_HC
1.91,5/6,HFAVNLTSLASSKQNVA,NASTVMV,QYYNRLPLS,En_Gibbs
0.25,6/6,KLSMITGHMSTIKNNVA,EMETREN,QQYNRLPLA,En_Gen
0.69,6/6,KLQMSTLYESRNKNSVA,WASTRES,QQYHRLPLS,GP_HC
0.00,6/6,DMTVVDNGASKIQNSVA,HGVEKCD,QQYSRLPLA,En_Gibbs
-0.34,6/6,KLSQSQWYESRNKNSVA,NASTRES,QQYHRLPLS,GP_Gen
not detected,0/6,KSSQSVLYESRNKNSVA,SAATRES,QQQHRLPLS,Ctrl
1.01,6/6,MLSQMTGLGMKAKNSVA,QANMRFD,QQYYRLPLI,En_Gen
-0.02,6/6,KLQQDVLYESRNKNSVA,QASTRMV,QAYHRLPLS,GP_Gibbs
-0.35,6/6,KLDGSDNYESRNKNSVA,EASERES,QQYHRLPLS,GP_Gibbs
0.65,6/6,KLSQSVLYQSRNKNNVA,DASTRES,QQYHRLPLS,GP_Gen
0.21,6/6,KVSQGGLYEQRQKNSVA,NASYRES,QQYHRLPLS,GP_Gibbs
0.49,6/6,KLMQEVLYESRLANSVA,NASTRLE,QQYHRLPLS,GP_Gibbs
0.55,6/6,KFSQNVLYHSRTKNSVA,NRSTRES,QQYHRLPLS,Rand
0.57,6/6,NFSQMVLTGSTLRNSVA,HANTRFE,QQYHRLPLI,En_HC
0.98,6/6,MISQLMNMGQFAINSVA,QATIRNS,QQYDRLPLV,En_Gen
0.39,6/6,KLQQSHLYESRNWNSVA,NASTRLS,QQYHRLPLS,GP_Gen
2.01,1/6,KSSQSVLYEKRNKNSVA,YASTRES,QQGHRPPLS,Ctrl
1.14,6/6,KISQMVKVGSTHSNSIA,EEVTRAK,QQYHRLPLA,En_Gen
0.06,6/6,KLPQSQLYESRNKNSVA,NASTRCS,QQYHRLPLS,GP_Gen
-0.03,6/6,KISQSYLMESRNKNSVA,NASTRLW,QQYHRLPLS,GP_Gibbs
1.57,6/6,KLYDEATNRVGTATNIA,EKEISLQ,QQYDRLPLS,En_Gibbs

Reference: Li et al. 2023, doi:10.1038/s41467-023-39022-2. File: FLAb, binding data.